Experiment [1] concerns the target T1, Shank1 PDZ (Homo sapiens, UniProt Q9Y566). Briefly: biochemical.
The next experiment deals with T2, SHANK-PDZ (Homo sapiens, UniProt Q9Y566).
T2 sequence (Q9Y566 656-762): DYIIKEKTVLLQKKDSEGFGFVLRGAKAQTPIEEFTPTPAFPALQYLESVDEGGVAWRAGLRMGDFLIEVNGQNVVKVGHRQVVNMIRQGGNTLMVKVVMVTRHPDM
Briefly: biochemical.

The chains behind the UniProt entries cited, without tags or fusion partners. Residues count along the entry.
UniProt P63165, 18-97, species assumed: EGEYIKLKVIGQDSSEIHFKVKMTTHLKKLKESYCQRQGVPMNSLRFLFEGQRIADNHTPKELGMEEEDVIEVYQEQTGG

The target in another experiment is T3, SUMO-1 (Homo sapiens, UniProt P63165).
T3 construct: The pet19b His-TEV-SUMO-1 (18-97) construct was over-expressed; His-TEV (N, cleaved yes); made in house; host or cells: E. coli Rosetta 2
Description: biochemical. It counts as binding.

Experiment [2] deals with T1, Shank1 PDZ. The settings on record: pH 7.45.

Like-named read-outs stand apart in the source and are kept apart here.

Molecule `CC(=O)N[C@@H](CCC(=O)O)C(=O)N[C@@H](C)C(=O)N[C@@H](CCC(N)=O)C(=O)N[C@H](C(=O)N[C@@H](CCCNC(=N)N)C(=O)N[C@@H](CC(C)C)C(=O)O)[C@@H](C)O` [GKAP] showed an IC50 against Shank1 PDZ [1] of 11 ± 1 µM. On SHANK-PDZ, the Kd turned out to be 2.77 ± 0.15 µM.

In the case of `CC[C@H](C)[C@H](NC(=O)[C@H](CCC(=O)O)NC(=O)[C@H](CC(N)=O)NC(=O)[C@H](CC(=O)O)NC(C)=O)C(=O)N[C@@H](CCC(=O)O)C(=O)N[C@H](C(=O)N[C@H](C(=O)N[C@H](C(=O)N[C@H](C(=O)N[C@@H](Cc1c[nH]c2ccccc12)C(=O)N[C@@H](CCC(=O)O)C(=O)N[C@@H](CCCCN)C(=O)N[C@@H](CCCCN)C(N)=O)C(C)C)[C@@H](C)CC)[C@@H](C)CC)C(C)C` [SIM], the IC50 against SUMO-1 is 30 ± 1 µM.

`CC(=O)N[C@@H](CCC(=O)O)C(=O)N[C@@H](C)C(=O)N[C@@H](CCC(N)=O)C(=O)N[C@H](C(=O)N[C@@H](CCCNC(=N)N)C(=O)N[C@@H](CC(C)C)C(N)=O)[C@@H](C)O` [CO2H-CONH2 GKAP]: the IC50 was > 1500 µM against Shank1 PDZ [1] and “did not inhibit” against Shank1 PDZ [2]. In addition, the Kd on SHANK-PDZ is 256 ± 64.3 µM.

The values are drawn from article PMC6804253, “Predicting and Experimentally Validating Hot-Spot Residues at Protein–Protein Interfaces” (ACS Chemical Biology, 2019).
